# Measured affinities in a library of Ab-14 heavy chain variants

Reference: Engelhart et al. 2022, doi:10.1038/s41597-022-01779-4. File: FLAb, binding data.

Antigen: PDVDLGDISGINAS, a 14-residue peptide of the SARS-CoV-2 spike HR2 region.

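Phage display of a naive human antibody library on the peptide gave the parent. In library AAYL49, one, two or three CDR residues were substituted; doubles and triples were drawn at random. The scFvs were displayed on barcoded MATa yeast, the peptide on MATalpha yeast. Pairs that bind mate more often; barcode pairs of the diploids are counted by sequencing. The ratio of observed to expected reads was calibrated, replicate by replicate, on BCL2-family standards whose Kd was known from biolayer interferometry. There are three technical replicates.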

Parent scFv Ab-14: VH joined to VL by a 15-residue (Gly4Ser)3 linker. Changes lie in the heavy chain CDRs alone.
VH: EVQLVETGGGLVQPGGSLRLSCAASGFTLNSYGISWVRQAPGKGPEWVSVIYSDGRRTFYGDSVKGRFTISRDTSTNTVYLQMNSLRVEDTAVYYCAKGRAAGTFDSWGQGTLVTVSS
VL: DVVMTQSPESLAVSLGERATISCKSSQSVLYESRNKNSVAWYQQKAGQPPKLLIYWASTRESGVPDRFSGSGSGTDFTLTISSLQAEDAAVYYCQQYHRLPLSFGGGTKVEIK

Each variant's VH is given in full.
The read-out is the apparent dissociation constant on a log10 scale (nM): the lower, the stronger.
The mean shown is taken over the replicates in which the pair was detected.
"n.d." marks a missing value. The strain was present, yet no cells mated with the target were sequenced in that replicate, which points to weak or no binding.
In this assay the parent's reference entry averaged 0.65; its copy inside this library read 4.11 (one replicate of three).
As a blank, each scFv also met three strains without target: over library AAYL49, 15% of these pairings were detected, typically at 4.06 and seldom below 2.83. The control count says in how many pairings with the empty strains this scFv gave a signal, with their mean in brackets.

VH	log10 Kd (nM) by replicate	log10 Kd (nM), mean	empty controls
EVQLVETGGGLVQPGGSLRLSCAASGFTLNSYGISWVRQAPGKGPEWVSVIYSDGRRTFYGDSVRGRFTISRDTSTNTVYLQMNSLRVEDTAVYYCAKQRAAGTFDSWGQGTLVTVSS	n.d. / n.d. / n.d.	n.d.	2 of 9 (3.36)
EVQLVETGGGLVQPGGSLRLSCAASGFTLNSEGISWVRQAPGKGPEWVSVIYSSGRRTFYGDSVKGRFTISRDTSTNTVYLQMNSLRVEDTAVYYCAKGRNAGTFDSWGQGTLVTVSS	n.d. / n.d. / n.d.	n.d.	0 of 9
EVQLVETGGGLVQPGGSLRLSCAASGHTLNSYGISWVRQAPGKGPEWVSVIYWDGRRTFYGDPVKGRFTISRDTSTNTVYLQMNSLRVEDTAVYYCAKGRAAGTFDSWGQGTLVTVSS	3.76 / 4.28 / 4.68	4.24	2 of 9 (4.55)
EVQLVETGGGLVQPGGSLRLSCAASGFELNSYGISWVRQAPGKGPEWVSVIISDGRRTFYGRSVKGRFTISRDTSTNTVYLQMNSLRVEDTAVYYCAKGRAAGTFDSWGQGTLVTVSS	3.88 / n.d. / 5.72	4.80	4 of 9 (3.71)
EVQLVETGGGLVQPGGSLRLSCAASGFHLNSYGISWVRQAPGKGPEWVSVIYLDGRRTFSGDSVKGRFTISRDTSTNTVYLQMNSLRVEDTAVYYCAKGRAAGTFDSWGQGTLVTVSS	n.d. / n.d. / n.d.	n.d.	0 of 9
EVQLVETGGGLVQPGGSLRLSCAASGFTLNSHGISWVRQAPGKGPEWVSVIYTDGRRTFYGDSVKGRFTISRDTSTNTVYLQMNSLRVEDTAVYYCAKGRADGTFDSWGQGTLVTVSS	n.d. / n.d. / n.d.	n.d.	1 of 9 (3.27)
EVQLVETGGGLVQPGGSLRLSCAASGFTLNSLGISWVRQAPGKGPEWVSVIYGDGRRTFYGDSVKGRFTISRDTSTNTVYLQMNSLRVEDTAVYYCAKGRAAGPFDSWGQGTLVTVSS	n.d. / 4.16 / 5.78	4.97	1 of 9 (4.97)
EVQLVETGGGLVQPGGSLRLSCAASGFTLNSYGISWVRQAPGKGPEWVSVIYSDGRRTFYGDSVKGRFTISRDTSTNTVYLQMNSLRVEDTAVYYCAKGRMASTFVSWGQGTLVTVSS	n.d. / n.d. / n.d.	n.d.	0 of 9
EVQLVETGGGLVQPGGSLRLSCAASGFTLNSYTISWVRQAPGKGPEWVSVIYSDGRGTFYGDSVKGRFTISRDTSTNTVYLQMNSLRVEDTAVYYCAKHRAAGTFDSWGQGTLVTVSS	n.d. / n.d. / n.d.	n.d.	0 of 9
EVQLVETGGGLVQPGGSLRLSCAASGDALNSYGIWWVRQAPGKGPEWVSVIYSDGRRTFYGDSVKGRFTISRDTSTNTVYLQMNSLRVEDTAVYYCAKGRAAGTFDSWGQGTLVTVSS	n.d. / n.d. / n.d.	n.d.	0 of 9
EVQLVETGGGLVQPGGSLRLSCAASGFTLNSYGISWVRQAPGKGPEWVSVIYSDGRRTSYGDSVKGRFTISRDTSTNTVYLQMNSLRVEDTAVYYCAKKRYAGTFDSWGQGTLVTVSS	n.d. / n.d. / n.d.	n.d.	0 of 9
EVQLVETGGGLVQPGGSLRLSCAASGFTLNSAGISWVRQAPGKGPEWVSVIYSDGARLFYGDSVKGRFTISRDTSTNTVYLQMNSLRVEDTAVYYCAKGRAAGTFDSWGQGTLVTVSS	n.d. / n.d. / n.d.	n.d.	0 of 9
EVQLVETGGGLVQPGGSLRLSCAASGFGLNSYGISWVRQAPGKGPEWVSVIYSWGRRTFYGDSSKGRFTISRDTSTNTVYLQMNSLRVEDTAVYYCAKGRAAGTFDSWGQGTLVTVSS	4.85 / n.d. / n.d.	4.85	0 of 9
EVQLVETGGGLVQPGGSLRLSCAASGFTLNSYGISWVRQAPGKGPEWVSVIYSDGCRTFPGDSVKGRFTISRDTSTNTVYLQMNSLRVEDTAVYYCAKPRAAGTFDSWGQGTLVTVSS	n.d. / n.d. / n.d.	n.d.	0 of 9
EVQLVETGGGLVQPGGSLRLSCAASGFTLNSYYISWVRQAPGKGPEWVSVIYSDGRRTFHGDSVKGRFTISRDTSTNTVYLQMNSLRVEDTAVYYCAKGRAAGTFDMWGQGTLVTVSS	3.13 / n.d. / n.d.	3.13	1 of 9 (3.84)
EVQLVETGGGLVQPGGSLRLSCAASGFDLNSYGISWVRQAPGKGPEWVSPIYSDGRRTFYGDSVKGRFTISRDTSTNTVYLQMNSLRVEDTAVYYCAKGRAAGTFHSWGQGTLVTVSS	n.d. / 3.92 / 5.15	4.54	4 of 9 (4.52)
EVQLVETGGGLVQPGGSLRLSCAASGFRLNSYGISWVRQAPGKGPEWVSVICSDGRRTFYGDSVKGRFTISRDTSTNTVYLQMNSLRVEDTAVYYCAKGRAAGTFHSWGQGTLVTVSS	4.97 / 4.92 / n.d.	4.94	0 of 9
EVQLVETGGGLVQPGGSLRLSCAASGFTLNSSGISWVRQAPGKGPEWVSVIYSDGRRTFYMDSVKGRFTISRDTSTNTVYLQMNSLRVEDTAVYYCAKGRAAGTFDSWGQGTLVTVSS	n.d. / 5.59 / 5.53	5.56	3 of 9 (4.62)
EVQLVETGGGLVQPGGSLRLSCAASGFTHNSYFISWVRQAPGKGPEWVSVIYSDGRRTFYGDSVKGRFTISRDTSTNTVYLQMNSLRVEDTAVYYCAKGRAAGTFDEWGQGTLVTVSS	n.d. / n.d. / n.d.	n.d.	3 of 9 (3.98)
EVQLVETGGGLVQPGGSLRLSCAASGFTLNSYTISWVRQAPGKGPEWVSVIFSDGRRTFYGDSVYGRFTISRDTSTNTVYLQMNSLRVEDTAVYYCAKGRAAGTFDSWGQGTLVTVSS	3.68 / 3.60 / n.d.	3.64	2 of 9 (4.38)
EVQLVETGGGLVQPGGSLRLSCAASGFTLMSYGISWVRQAPGKGPEWVSVIASDGRRTFYGDSVKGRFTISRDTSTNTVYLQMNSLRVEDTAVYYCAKGNAAGTFDSWGQGTLVTVSS	3.24 / 2.97 / 3.52	3.25	2 of 9 (3.94)

The opening 2 entries, copied out:

| VH | log10 Kd (nM) by replicate | log10 Kd (nM), mean | empty controls |
|---|---|---|---|
| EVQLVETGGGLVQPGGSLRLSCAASGFTLNSYGISWVRQAPGKGPEWVSVIYSDGRRTFYGDSVRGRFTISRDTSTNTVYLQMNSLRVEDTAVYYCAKQRAAGTFDSWGQGTLVTVSS | n.d. / n.d. / n.d. | n.d. | 2 of 9 (3.36) |
| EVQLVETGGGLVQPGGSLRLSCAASGFTLNSEGISWVRQAPGKGPEWVSVIYSSGRRTFYGDSVKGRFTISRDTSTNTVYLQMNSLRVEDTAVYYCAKGRNAGTFDSWGQGTLVTVSS | n.d. / n.d. / n.d. | n.d. | 0 of 9 |